Measured values taken from the RepoRT retention time repository (doi:10.1016/j.chroma.2014.05.003).

Test: RP, Agilent ZORBAX Eclipse Plus C18, 50 × 4.6 mm, 1.8 µm, 0.5 mL/min, estimated dead time 1.1 min; A: water + 0.1% formic acid; B: acetonitrile + 0.1% formic acid; gradient (min/%B) 0/10 3/10 25/100 28/100
Conditions: stereoisomer not certain

CCOP(=S)(OCC)Oc1ncn(-c2ccccc2)n1
LC retention time: 17.1 min
